Assay results taken from publication doi:10.1101/2024.06.25.600598v1 (biorxiv, 2024).
Where a name gives a salt, the structure may show the parent alone.

biological target: T1, fibroblast activation protein (FAP; rhFAP, SLIN-tagged hFAP) (Homo sapiens, UniProt Q12884); assay type: binding
T1 sequence (Q12884 35-760): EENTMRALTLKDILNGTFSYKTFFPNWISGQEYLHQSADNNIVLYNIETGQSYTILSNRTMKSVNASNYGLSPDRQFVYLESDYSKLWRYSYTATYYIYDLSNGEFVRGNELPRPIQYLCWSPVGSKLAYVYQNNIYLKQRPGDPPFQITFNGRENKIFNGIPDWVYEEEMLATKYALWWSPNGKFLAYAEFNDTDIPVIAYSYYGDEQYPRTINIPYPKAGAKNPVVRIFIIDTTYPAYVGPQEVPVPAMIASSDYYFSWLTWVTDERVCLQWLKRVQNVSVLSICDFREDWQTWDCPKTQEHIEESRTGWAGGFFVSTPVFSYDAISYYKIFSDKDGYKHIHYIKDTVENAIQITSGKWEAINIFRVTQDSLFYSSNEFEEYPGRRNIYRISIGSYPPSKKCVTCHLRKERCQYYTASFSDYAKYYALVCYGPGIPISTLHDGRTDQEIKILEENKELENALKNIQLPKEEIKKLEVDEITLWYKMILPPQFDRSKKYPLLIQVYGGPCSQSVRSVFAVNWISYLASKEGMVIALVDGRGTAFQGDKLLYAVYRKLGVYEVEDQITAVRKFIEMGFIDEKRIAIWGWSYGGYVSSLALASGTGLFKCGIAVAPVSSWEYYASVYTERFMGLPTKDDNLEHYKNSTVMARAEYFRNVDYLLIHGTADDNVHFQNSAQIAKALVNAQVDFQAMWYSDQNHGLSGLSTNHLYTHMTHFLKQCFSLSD

In order of falling Ki:
1. Cc1cc2ncc(C(=O)NCC(C)(C)NCC(=O)N3CCC[C@H]3C#N)cn2n1 [Anagliptin]  380 nM
2. CO/N=C(\C(=O)N[C@@H]1C(=O)N2C(C(=O)OCOC(=O)C(C)(C)C)=C(/C=C\c3scnc3C)CS[C@H]12)c1csc(N)n1 [Cefditoren pivoxil]  150 nM
3. CC/C=C(\C(=O)N[C@@H]1C(=O)N2C(C(=O)OCOC(=O)C(C)(C)C)=C(COC(N)=O)CS[C@H]12)c1csc(N)n1 [Cefcapene pivoxil (hydrochloride)]  120 nM
4. CO/N=C(\C(=O)N[C@@H]1C(=O)N2C(C(=O)OCOC(=O)C(C)(C)C)=C(C)CS[C@H]12)c1csc(N)n1 [Cefetamet pivoxil (hydrochloride)]  110 nM
